Reference: PMC5764337 (PLoS ONE, 2018)

Molecular target: B/BR/60/08 virus NA (Influenza B virus, UniProt C0LT34)
Format: biochemical
Conditions: read-out: NA enzyme inhibition assay (mean IC50 ± SD)

CCC(CC)O[C@@H]1C=C(C(=O)O)C[C@H](N)[C@H]1NC(C)=O [Oseltamivir carboxylate, oseltamivir carboxylate]
IC50: 16.1 nM
